From article PMC8427951, “Design, synthesis, and preliminary evaluation of a potential synthetic opioid rescue agent” (Journal of Biomedical Science, 2021)

By UniProt entry, the sequences of proteins in these tests, tags left out. Where a name states a change or a piece, a line headed by the entry shows the natural chain unless it says otherwise.
UniProt P35372, whole entry: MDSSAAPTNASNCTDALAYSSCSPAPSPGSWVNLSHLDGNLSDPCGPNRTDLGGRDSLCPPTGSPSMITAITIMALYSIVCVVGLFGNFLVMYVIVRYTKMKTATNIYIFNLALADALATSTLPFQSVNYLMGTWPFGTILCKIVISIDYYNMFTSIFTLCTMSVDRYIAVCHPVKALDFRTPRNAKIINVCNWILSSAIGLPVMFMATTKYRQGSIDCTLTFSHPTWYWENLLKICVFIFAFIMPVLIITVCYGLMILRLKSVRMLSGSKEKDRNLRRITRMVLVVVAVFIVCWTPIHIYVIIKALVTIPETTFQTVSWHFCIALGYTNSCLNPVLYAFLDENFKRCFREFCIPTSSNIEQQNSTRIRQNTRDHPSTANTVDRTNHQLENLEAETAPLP
UniProt P41145: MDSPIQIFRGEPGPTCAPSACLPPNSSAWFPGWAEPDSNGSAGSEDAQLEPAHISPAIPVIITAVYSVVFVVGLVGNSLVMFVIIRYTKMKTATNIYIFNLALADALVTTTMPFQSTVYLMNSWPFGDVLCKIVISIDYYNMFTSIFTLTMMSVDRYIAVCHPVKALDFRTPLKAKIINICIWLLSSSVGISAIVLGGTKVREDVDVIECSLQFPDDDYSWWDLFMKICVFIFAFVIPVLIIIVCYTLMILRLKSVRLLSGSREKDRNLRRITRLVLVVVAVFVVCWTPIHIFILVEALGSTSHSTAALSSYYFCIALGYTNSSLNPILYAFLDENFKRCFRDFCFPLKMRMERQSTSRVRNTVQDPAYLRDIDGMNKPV

Columns and labels:
[1] = target: human μ opioid receptor (MOR) (Homo sapiens, UniProt P35372); test: cell-based; details: for EC50: MOR agonism EC50; for Emax: read-out: MOR agonism % efficacy
[2] = target: human κ opioid receptor (KOR) (Homo sapiens, UniProt P41145); test: cell-based; details: for Emax: read-out: KOR agonism % efficacy

Compound | EC50 [1] [nM] | Emax [1] [%] | EC50 [2] [nM] | Emax [2] [%]
O=C(/C=C/c1ccc(Cl)cc1)N[C@@]12CCC(=O)[C@@H]3Oc4c(O)ccc5c4[C@@]31CCN(CC1CC1)[C@@H]2C5 [CCAM, clocinnamox, reference compound] | > 10000 |  |  | 
CCC(=O)O[C@@]12CCC(=O)[C@@H]3Oc4c(O)ccc5c4[C@@]31CCN(CC1CC1)[C@@H]2C5 [Compound 14] | 4.98 | 19.6 | 1.56 | 58.7
O=C1CC[C@@]2(OCCCC3CCCCC3)[C@H]3Cc4ccc(O)c5c4[C@@]2(CCN3CC2CC2)[C@H]1O5 [Compound 16] | 1.89 | 98.5 |  | 
CCCO[C@@]12CCC(=O)[C@@H]3Oc4c(O)ccc5c4[C@@]31CCN(CC1CC1)[C@@H]2C5 [Compound 20] | 6.57 | 38.7 | 0.67 | 39.1
C=CCO[C@@]12CCC(=O)[C@@H]3Oc4c(O)ccc5c4[C@@]31CCN(CC1CC1)[C@@H]2C5 [Compound 21] | 0.72 | 37.4 | 0.12 | 41.2
O=C1CC[C@@]2(OC[C@H](O)CO)[C@H]3Cc4ccc(O)c5c4[C@@]2(CCN3CC2CC2)[C@H]1O5 [Compound 22] | > 10000 |  | > 10000 | 
CO[C@H]1CC[C@@]2(O)[C@H]3Cc4ccc(O)c5c4[C@@]2(CCN3CC2CC2)[C@H]1O5 [Compound 25] | 1.86 | 58.2 |  | 
CO[C@@H]1CC[C@@]2(O)[C@H]3Cc4ccc(O)c5c4[C@@]2(CCN3CC2CC2)[C@H]1O5 [Compound 26] | 0.88 | 39 |  | 
C=CCOC12CCC(=C)C3Oc4c(O)ccc5c4C31CCN(CC1CC1)C2C5 (stereo not shown) [Compound 28] | 0.34 | 38.3 | 0.14 | 44.1
C=C1CC[C@@]2(OCCC)[C@H]3Cc4ccc(O)c5c4[C@@]2(CCN3CC2CC2)[C@H]1O5 [Compound 29] | 1.21 | 17 | 0.43 | 59.1
C=C1CC[C@@]2(OC[C@H](O)CO)[C@H]3Cc4ccc(O)c5c4[C@@]2(CCN3CC2CC2)[C@H]1O5 [Compound 30] | > 10000 |  | > 10000 | 
